Measurements as given in patent publication US7959743B2, “Lithium salts of fatty alcohol sulphates for cleaning boreholes, boring devices and borings” (priority 2004, dated 2011).

Legend:
[1] = tested on: Corophium volutator; details: sediment bioassay
[2] = tested on: Skeletonema costatum; assay: Toxicity on Skeletonema costatum (ISO 10253 1988)
Method: (§1) An aerobic degradation test was also carried out (Marine Bodies ISO/TC 147/SC 5/WG 4 N 141).

[3] = marine aerobic degradation
Method: as §1

With Lithium lauryl sulfate, C8-12 [E1] the “Corophium volutator 10 d, LC 50” value [1] was 6585 mg/kg, the “Skeletonema 72 h EC 50” value [2] was 33 µg/mL and the “Aerobic degradation (28 d) in %” value [3] was 98%.
